Assay results published in ChEMBL document CHEMBL3808365, “Potent and Selective CK2 Kinase Inhibitors with Effects on Wnt Pathway Signaling in Vivo” (ACS Med Chem Lett, 2016).

Protein sequences, listed by entry. Tags and fused reporters are not part of them. Lines headed by an entry give the natural chain unless they say otherwise; changes in a name come on top.
UniProt Q9H2X6: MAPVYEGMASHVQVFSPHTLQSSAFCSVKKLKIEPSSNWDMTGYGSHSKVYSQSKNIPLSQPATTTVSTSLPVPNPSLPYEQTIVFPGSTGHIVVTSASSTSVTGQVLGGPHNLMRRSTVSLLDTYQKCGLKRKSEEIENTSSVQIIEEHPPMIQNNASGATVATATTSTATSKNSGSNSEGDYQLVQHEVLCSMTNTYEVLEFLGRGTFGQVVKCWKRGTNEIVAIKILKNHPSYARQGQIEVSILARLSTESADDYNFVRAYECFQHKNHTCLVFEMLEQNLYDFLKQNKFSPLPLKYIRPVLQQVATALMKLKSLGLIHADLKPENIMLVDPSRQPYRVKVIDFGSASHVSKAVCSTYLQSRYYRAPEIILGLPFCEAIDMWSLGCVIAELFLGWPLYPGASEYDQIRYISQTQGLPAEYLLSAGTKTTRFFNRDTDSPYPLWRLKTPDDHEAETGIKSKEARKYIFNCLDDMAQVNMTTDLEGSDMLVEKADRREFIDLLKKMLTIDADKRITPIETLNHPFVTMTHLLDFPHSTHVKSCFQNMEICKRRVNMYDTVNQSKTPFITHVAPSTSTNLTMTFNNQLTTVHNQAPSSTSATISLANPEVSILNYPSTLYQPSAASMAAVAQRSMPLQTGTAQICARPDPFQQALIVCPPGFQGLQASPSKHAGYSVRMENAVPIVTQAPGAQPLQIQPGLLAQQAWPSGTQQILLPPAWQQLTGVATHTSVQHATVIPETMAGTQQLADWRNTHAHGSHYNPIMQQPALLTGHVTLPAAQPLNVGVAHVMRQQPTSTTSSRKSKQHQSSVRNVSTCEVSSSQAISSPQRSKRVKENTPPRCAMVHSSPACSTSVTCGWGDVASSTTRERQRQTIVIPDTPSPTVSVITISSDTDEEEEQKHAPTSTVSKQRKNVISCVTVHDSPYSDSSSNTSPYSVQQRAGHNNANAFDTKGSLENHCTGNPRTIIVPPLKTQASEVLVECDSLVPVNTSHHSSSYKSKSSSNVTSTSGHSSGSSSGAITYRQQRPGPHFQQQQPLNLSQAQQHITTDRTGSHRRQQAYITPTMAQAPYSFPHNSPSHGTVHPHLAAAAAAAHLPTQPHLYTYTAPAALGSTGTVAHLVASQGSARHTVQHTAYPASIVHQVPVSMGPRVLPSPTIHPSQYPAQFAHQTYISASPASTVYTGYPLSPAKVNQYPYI

Biological target: Homeodomain-interacting protein kinase 2 (Homo sapiens, UniProt Q9H2X6)
Experiment: Inhibition of Hipk2 (unknown origin) by quantitative PCR

IC50: 40 nM
SMILES: CC(=O)Nc1cc(Nc2cc(NC3CC3)n3ncc(C#N)c3n2)ccc1N(C)CCN
